# Data: patent US20210353579A1, “HIGH PENETRATION COMPOSITIONS AND USES THEREOF” (Techfields Pharma Co., Ltd., priority 2006, published 2021)
# Legend:
# [1] = Plasma levels after transdermal administration to hairless mice; type: in vivo
# [2] = tested on: human skin tissue; details: pH 7.4
# [3] = tested on: rat; details: in vivo;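 further: acute toxicity in rats expressed as LD50, determined for both prodrugs and their parent compounds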
# [4] = Solubility in water / aqueous solubility of HPPs and parent drugs; details: product as prepared in Example 1
substance,measurement,setting,value
"8-chloro-(4-N,N-dimethylaminobutyryloxy-pyridine-2-ylamino-methylidene)-3-methyl-2,2-dioxo-2λ^6,7-dithia-3-azabicyclo[4,3,0]nona-8,10-dien-5-one.HCl",Peak plasma concentration of parent compound after prodrug compound,"[1]; mouse, in vivo",20 mg/L
same,"t, time to peak plasma level of parent compound after prodrug compound","[1]; mouse, in vivo",50 min
same,"In vitro penetration rate (apparent flux), prodrug compounds",[2],1700 μg/cm^2/h
same,LD50 of HPP,[3],610 mg/kg
"dipropylaminoethyl 2[(2,6-dichlorophenyl)amino] benzene acetate.AcOH",Solubility in water,[4],300 mg/mL
α-methyl-(p-chlorobenzoyl)-5-methoxy-2-methylindole 3-acetic acid [reference compound],"t, time to peak plasma level after parent compound",[1]; parent compound administered (time when taken orally),2 to 4 h
same,Peak plasma concentration after parent compound,"[1]; parent compound administered, hairless mice",10 mg/L
